## Measured affinities in a library of Ab-14 heavy chain variants

Data: MIT Lincoln Laboratory AlphaSeq set, Li et al. 2023, doi:10.1038/s41467-023-39022-2, as distributed in FLAb.

Target peptide (SARS-CoV-2 spike, HR2 region): PDVDLGDISGINAS

Parent: Ab-14, a human scFv built as VH, a (GGGGS)3 linker, VL. Only the CDRs of the heavy chain vary.
VH: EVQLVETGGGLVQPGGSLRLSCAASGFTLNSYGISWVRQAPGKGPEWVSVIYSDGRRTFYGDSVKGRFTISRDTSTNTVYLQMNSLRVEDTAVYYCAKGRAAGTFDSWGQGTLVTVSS
VL: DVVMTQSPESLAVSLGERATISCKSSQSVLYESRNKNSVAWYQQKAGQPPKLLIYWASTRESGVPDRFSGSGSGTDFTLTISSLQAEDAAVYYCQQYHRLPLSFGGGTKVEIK

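Designed CDR sequences, proposed from the first random library and measured here. Group labels follow the data file (Rand: our label for a block that the file lists under HC and that is probably the random mutants of the ten best first-round binders; En: ensemble of fine-tuned language models; GP: Gaussian process model; GPLM: also part of the Gaussian process libraries; HC: hill climbing; Gen: genetic algorithm; Gibbs: Gibbs sampling; a sequence that several methods proposed may carry one label only). Affinity was read by AlphaSeq, a pooled yeast mating assay with surface-displayed partners. Pairs that bind mate more often; barcode pairs of the diploids are counted by sequencing. Each replicate has its own calibration line, from reference interactions of the BCL2 family. There are six technical replicates.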

Variants are written as CDR1, CDR2 and CDR3 of the heavy chain (limits as in the source). Parent: GFTLNSYGIS, VIYSDGRRTFYGDSVK, GRAAGTFDS.
Values are log10 of the apparent Kd in nM; lower means stronger binding.
A mean of the replicates is given; it leaves out those without a signal.
An entry "nd" has no value in the source: the pair was not observed among the diploids in any replicate. This suggests poor binding but is not conclusive.
The range of this assay differs from that of the first round, and the authors advise against merging the two.
The authors' rule: three or more of the six replicates give a measured affinity, fewer mean a poor binder.
Background: pairings of all heavy chain designs with three empty control strains gave a value in 1% of cases (median 2.08, 5th percentile 0.84). Values in that range, when seen in few replicates, are hard to tell from nonspecific mating.

{"CDR-H1": "GFDLNEYGIS", "CDR-H2": "VIYADGRRTFYSDSVK", "CDR-H3": "GEIAGTFDS", "group": "En_HC", "mean log10 Kd (nM)": "-0.23", "seen in": "5 of 6"}
{"CDR-H1": "GFDLNEYGIS", "CDR-H2": "VIYADGRRTAYADSVK", "CDR-H3": "GQAAGTFDI", "group": "En_HC", "mean log10 Kd (nM)": "-0.50", "seen in": "6 of 6"}
{"CDR-H1": "GFSLNWYGIS", "CDR-H2": "VIYSDGRRTAYGDSVK", "CDR-H3": "GRQAGTFDS", "group": "GP_Gibbs", "mean log10 Kd (nM)": "0.27", "seen in": "5 of 6"}
{"CDR-H1": "GFDLNEYGIS", "CDR-H2": "VIYADGSRTVYADSVK", "CDR-H3": "GNVAGTFDV", "group": "En_Gen", "mean log10 Kd (nM)": "-0.68", "seen in": "6 of 6"}
{"CDR-H1": "GFDLNEYGIS", "CDR-H2": "VIYADGRRTAYADDVK", "CDR-H3": "GEVAGTFDT", "group": "En_Gen", "mean log10 Kd (nM)": "-0.62", "seen in": "6 of 6"}
{"CDR-H1": "GFNLNSYGIS", "CDR-H2": "VIYSDGRRTFYGDSVK", "CDR-H3": "GKQAGTFDS", "group": "GPLM_Gibbs", "mean log10 Kd (nM)": "1.26", "seen in": "6 of 6"}
{"CDR-H1": "GFLLNQYGAS", "CDR-H2": "VIYSDGRRTFYSDSVK", "CDR-H3": "GRAAGFFDS", "group": "Rand", "mean log10 Kd (nM)": "nd", "seen in": "0 of 6"}
{"CDR-H1": "GFDLNSYGIS", "CDR-H2": "VIYSDGRRTFYDDSVK", "CDR-H3": "GRLAGTFDS", "group": "GP_Gen", "mean log10 Kd (nM)": "0.15", "seen in": "6 of 6"}
{"CDR-H1": "GFSLNSYGIS", "CDR-H2": "VIYSDGRRTFYGDSVK", "CDR-H3": "GQAAGTFDI", "group": "GPLM_Gen", "mean log10 Kd (nM)": "-0.16", "seen in": "4 of 6"}
{"CDR-H1": "GFDLNEYGIS", "CDR-H2": "VIYADGRRTAYADSVK", "CDR-H3": "GQNAGTFDT", "group": "En_Gen", "mean log10 Kd (nM)": "-0.37", "seen in": "6 of 6"}
{"CDR-H1": "GFDLNSYGIS", "CDR-H2": "VIYSDGRRTFYGDAVK", "CDR-H3": "GKTAGTFDS", "group": "GP_Gen", "mean log10 Kd (nM)": "-0.53", "seen in": "6 of 6"}
{"CDR-H1": "GFTLNDYGIS", "CDR-H2": "VIYSDGRRTFYGDSVK", "CDR-H3": "GRAAGTFIK", "group": "GPLM_HC", "mean log10 Kd (nM)": "nd", "seen in": "0 of 6"}
{"CDR-H1": "GFELNSYGIS", "CDR-H2": "VIYADGRRTFYHDSVK", "CDR-H3": "GEAAGTFDS", "group": "GP_Gen", "mean log10 Kd (nM)": "-0.47", "seen in": "6 of 6"}
{"CDR-H1": "GFQLNDYGIS", "CDR-H2": "VIYSDGRRTFYGDSVK", "CDR-H3": "GRQAGTFDT", "group": "GP_Gen", "mean log10 Kd (nM)": "1.03", "seen in": "6 of 6"}
{"CDR-H1": "GFDLNEYGIS", "CDR-H2": "VIYADGRRTSYADSVK", "CDR-H3": "GQLAGTFDQ", "group": "En_HC", "mean log10 Kd (nM)": "-0.63", "seen in": "6 of 6"}
{"CDR-H1": "GFDLNEYGIS", "CDR-H2": "VIYSDGRRTFYGDAVK", "CDR-H3": "GRAAGTFDK", "group": "GP_HC", "mean log10 Kd (nM)": "-0.19", "seen in": "6 of 6"}
{"CDR-H1": "GFTLDSYGIS", "CDR-H2": "VIYSDGRRTFYGDSVK", "CDR-H3": "GRAAGTFDL", "group": "GPLM_HC", "mean log10 Kd (nM)": "0.94", "seen in": "6 of 6"}
{"CDR-H1": "GFGLNEYGIS", "CDR-H2": "VIYSDGRRTFYGDSVK", "CDR-H3": "GWTAGTFDS", "group": "GPLM_Gibbs", "mean log10 Kd (nM)": "0.20", "seen in": "6 of 6"}
{"CDR-H1": "GFGLNSYGIS", "CDR-H2": "VIYSDGRRTFYGDAVK", "CDR-H3": "GRTAGTFDS", "group": "GP_Gibbs", "mean log10 Kd (nM)": "0.96", "seen in": "6 of 6"}
{"CDR-H1": "KFSLNDYGIS", "CDR-H2": "VIYSDGRRTFYADSVK", "CDR-H3": "GRTAGTFDS", "group": "GP_Gibbs", "mean log10 Kd (nM)": "-0.10", "seen in": "6 of 6"}
{"CDR-H1": "GFTLNSYGIS", "CDR-H2": "VIYADGRRTFYGDSVK", "CDR-H3": "GRAAATFDQ", "group": "GP_HC", "mean log10 Kd (nM)": "nd", "seen in": "0 of 6"}

Top 2 of the variants detected in all replicates, tightest first:

CDR-H1,CDR-H2,CDR-H3,group,mean log10 Kd (nM),seen in
GFDLNEYGIS,VIYADGSRTVYADSVK,GNVAGTFDV,En_Gen,-0.68,6 of 6
GFDLNEYGIS,VIYADGRRTSYADSVK,GQLAGTFDQ,En_HC,-0.63,6 of 6